Biological target: mGluR5 (Rattus norvegicus, UniProt P31424)
Assay: functional mGluR5 antagonist assay
Format: cell-based
Details: identified from the functional HTS

Chains of the proteins cited; added tags and fusions are not shown. Residues count along the entry.
UniProt P31424, 21-1203: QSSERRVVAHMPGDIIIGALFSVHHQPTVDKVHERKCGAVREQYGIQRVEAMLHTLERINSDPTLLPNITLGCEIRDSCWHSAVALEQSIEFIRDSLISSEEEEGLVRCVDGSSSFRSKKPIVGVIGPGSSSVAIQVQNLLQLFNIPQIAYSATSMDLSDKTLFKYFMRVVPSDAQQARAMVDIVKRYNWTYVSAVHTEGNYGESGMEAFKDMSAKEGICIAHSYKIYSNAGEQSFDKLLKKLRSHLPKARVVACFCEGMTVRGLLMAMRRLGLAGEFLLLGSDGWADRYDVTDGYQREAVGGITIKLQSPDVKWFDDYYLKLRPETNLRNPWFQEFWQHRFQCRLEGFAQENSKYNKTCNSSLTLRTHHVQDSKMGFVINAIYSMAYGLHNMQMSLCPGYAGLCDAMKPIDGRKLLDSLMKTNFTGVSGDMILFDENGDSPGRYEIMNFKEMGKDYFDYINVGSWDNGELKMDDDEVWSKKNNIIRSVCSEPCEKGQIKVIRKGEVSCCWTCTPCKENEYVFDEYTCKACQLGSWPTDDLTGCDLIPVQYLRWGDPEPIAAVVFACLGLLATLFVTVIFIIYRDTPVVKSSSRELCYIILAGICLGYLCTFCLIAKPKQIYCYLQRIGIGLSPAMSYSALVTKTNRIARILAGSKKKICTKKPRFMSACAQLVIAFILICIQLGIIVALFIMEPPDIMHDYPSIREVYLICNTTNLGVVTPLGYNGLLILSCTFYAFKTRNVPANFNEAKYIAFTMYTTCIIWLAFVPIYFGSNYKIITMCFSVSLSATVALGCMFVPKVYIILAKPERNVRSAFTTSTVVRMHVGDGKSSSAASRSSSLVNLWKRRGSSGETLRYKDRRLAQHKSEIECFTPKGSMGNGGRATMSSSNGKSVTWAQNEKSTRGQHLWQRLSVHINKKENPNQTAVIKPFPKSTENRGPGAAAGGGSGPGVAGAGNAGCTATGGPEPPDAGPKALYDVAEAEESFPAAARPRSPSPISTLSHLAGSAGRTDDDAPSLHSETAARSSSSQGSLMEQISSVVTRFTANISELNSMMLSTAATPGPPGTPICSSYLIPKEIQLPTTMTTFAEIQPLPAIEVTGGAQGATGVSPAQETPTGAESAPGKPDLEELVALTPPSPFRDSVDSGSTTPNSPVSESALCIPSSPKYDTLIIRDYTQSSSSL

- IC50 in functional HTS: submicromolar
Compound: Cc1cc(C)c2c(N)c(C(=O)c3ccc(F)cc3)oc2n1 [Cmpd 12, (3-amino-4,6-dimethylfuro[2,3-b]pyridine-2-yl)(4-fluorophenyl)methanone]

Source: publication PMC3177605 (Bioorganic & medicinal chemistry letters, 2009)
